Like-named read-outs stand apart in the source and are kept apart here.
Legend:
[1] = test system: neurological index disrupted by triethyltin (TET); conditions: for Behavioural sign (neurological index): no TET
[2] = test system: ambulatory activity disrupted by triethyltin (TET); conditions: TET 0
[3] = moclobemide 2 × 50 mg/kg/day, TET 0, day 0
[4] = moclobemide 2 × 50 mg/kg/day, TET 0, day 1
[5] = moclobemide 2 × 50 mg/kg/day, TET 0, day 2
[6] = moclobemide 2 × 50 mg/kg/day, TET 0, day 3
[7] = moclobemide 2 × 50 mg/kg/day, TET 0, day −3
[8] = moclobemide 2 × 100 mg/kg/day + TET 3 mg/kg/day, day 1
[9] = moclobemide 2 × 100 mg/kg/day, TET 0, day 0
[10] = moclobemide 2 × 100 mg/kg/day, TET 0, day 1
[11] = moclobemide 2 × 100 mg/kg/day, TET 0, day 2
[12] = moclobemide 2 × 100 mg/kg/day, TET 0, day 3
[13] = moclobemide 2 × 100 mg/kg/day, TET 0, day −3
[14] = moclobemide 2 × 100 mg/kg/day, day 4
[15] = moclobemide 2 × 100 mg/kg/day, day −3, before any treatment

In the case of moclobemide, the “Neurological index (means ± esm), score 0 to 3” value (shortened to “Neurological index (means ± esm)”) ([1]; moclobemide 2 × 50 mg/kg/day + TET 3 mg/kg/day, day 0) is reported as 0, the “Neurological index (means ± esm)” value ([1]; moclobemide 2 × 50 mg/kg/day + TET 3 mg/kg/day, day 1) is reported as 0 and the “Neurological index (means ± esm)” value ([1]; moclobemide 2 × 50 mg/kg/day + TET 3 mg/kg/day, day 2) is reported as 0.10 ± 0.10. For the same substance, the “Neurological index (means ± esm)” value ([1]; moclobemide 2 × 50 mg/kg/day + TET 3 mg/kg/day, day −3) was 0, the “Behavioural sign (neurological index)” value ([1]; moclobemide 2×50 mg/kg/day for 5 days) was “does not lead to any behavioural sign” and the “Neurological index (means ± esm)” value [1, 3] was 0. The “Neurological index (means ± esm)” value [1, 4] was 0, the “Neurological index (means ± esm)” value [1, 5] was 0 and the “Neurological index (means ± esm)” value [1, 6] was 0.10 ± 0.10. For the same substance, the “Neurological index (means ± esm)” value ([1]; moclobemide 2 × 50 mg/kg/day, TET 0, day 4) was 0, the “Neurological index (means ± esm)” value [1, 7] was 0 and the “Effect of TET on the neurological index” value ([1]; moclobemide 2×100 mg/kg/day + TET) was “inhibits the effect of TET”. For the same substance, the “Neurological index (means ± esm)” value ([1]; moclobemide 2 × 100 mg/kg/day + TET 3 mg/kg/day, day 0) was 0, the “Neurological index (means ± esm)” value [1, 8] was 0 and the “Neurological index (means ± esm)” value ([1]; moclobemide 2 × 100 mg/kg/day + TET 3 mg/kg/day, day 2) was 0. The “Neurological index (means ± esm)” value ([1]; moclobemide 2 × 100 mg/kg/day + TET 3 mg/kg/day, day 3) was 0.25 ± 0.15, the “Neurological index (means ± esm)” value ([1]; moclobemide 2 × 100 mg/kg/day + TET 3 mg/kg/day, day 4) was 0.85 ± 0.18 and the “Neurological index (means ± esm)” value ([1]; moclobemide 2 × 100 mg/kg/day + TET 3 mg/kg/day, day −3) was 0. The “Behavioural sign (neurological index)” value ([1]; moclobemide 2×100 mg/kg/day for 5 days) was “does not lead to any behavioural sign”, the “Neurological index (means ± esm)” value [1, 9] was 0 and the “Neurological index (means ± esm)” value [1, 10] was 0. The “Neurological index (means ± esm)” value [1, 11] was 0, the “Neurological index (means ± esm)” value [1, 12] was 0 and the “Neurological index (means ± esm)” value ([1]; moclobemide 2 × 100 mg/kg/day, TET 0, day 4) was 0. For the same substance, the “Neurological index (means ± esm)” value [1, 13] was 0, the “Vertical ambulatory activity (means ± esm)” value (“Vertical ambulatory activity” for short) ([2]; moclobemide 2 × 50 mg/kg/day, day 4) was 160 ± 20 arbitrary unit and the “Vertical ambulatory activity” value ([2]; moclobemide 2 × 50 mg/kg/day, day −3, before any treatment) was 355 ± 46 arbitrary unit. For the same substance, the “Horizontal ambulatory activity (means ± esm)” value [2, 14] was 776 ± 168 arbitrary unit, the “Total ambulatory activity (means ± esm)” value [2, 14] was 1091 ± 218 arbitrary unit and the “Vertical ambulatory activity” value [2, 14] was 64 ± 17 arbitrary unit. The “Horizontal ambulatory activity (means ± esm)” value [2, 15] was 1863 ± 276 arbitrary unit, the “Total ambulatory activity (means ± esm)” value [2, 15] was 2599 ± 360 arbitrary unit and the “Vertical ambulatory activity” value [2, 15] was 199 ± 35 arbitrary unit. The “Body weight (grammes ± esm)” value [3] was 248 ± 3 grammes, the “Body weight (grammes ± esm)” value [4] was 247 ± 4 grammes and the “Body weight (grammes ± esm)” value [5] was 251 ± 4 grammes. For the same substance, the “Body weight (grammes ± esm)” value [6] was 255 ± 4 grammes, the “Body weight (grammes ± esm)” value [7] was 215 ± 3 grammes and the “Body weight (grammes ± esm)” value [8] was 240 ± 3 grammes. For the same substance, the “Body weight (grammes ± esm)” value [9] was 240 ± 3 grammes, the “Body weight (grammes ± esm)” value [10] was 234 ± 3 grammes and the “Body weight (grammes ± esm)” value [11] was 239 ± 4 grammes. The “Body weight (grammes ± esm)” value [12] was 238 ± 4 grammes and the “Body weight (grammes ± esm)” value [13] was 201 ± 5 grammes.
